Test results taken from ChEMBL document CHEMBL4610077, “CDK7 Inhibitors in Cancer Therapy: The Sweet Smell of Success?” (J Med Chem, 2020).

Amino acid sequences for entries named in this document (tags omitted). A change or cut given only in a name is not applied to a line headed by its entry.
UniProt P50613: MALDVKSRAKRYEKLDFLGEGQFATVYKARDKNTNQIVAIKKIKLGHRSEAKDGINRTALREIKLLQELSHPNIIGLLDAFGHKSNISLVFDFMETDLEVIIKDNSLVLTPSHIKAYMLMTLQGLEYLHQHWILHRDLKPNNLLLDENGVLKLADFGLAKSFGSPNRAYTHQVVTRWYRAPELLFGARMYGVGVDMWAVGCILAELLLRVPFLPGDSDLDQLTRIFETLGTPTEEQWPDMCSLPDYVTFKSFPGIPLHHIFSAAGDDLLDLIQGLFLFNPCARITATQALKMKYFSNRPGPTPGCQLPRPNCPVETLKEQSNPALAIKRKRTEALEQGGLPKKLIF

Biological target: Cyclin-dependent kinase 7 (Homo sapiens, UniProt P50613)
Experiment: Inhibition of CDK7 (unknown origin) assessed as ratio of Kinact to Ki

CN(C)C/C=C/C(=O)Nc1ccc(C(=O)N[C@@]2(C)CCC[C@@H](Nc3ncc(Cl)c(-c4c[nH]c5ccccc45)n3)C2)nc1
Ratio: 0.131 µM⁻¹ s⁻¹
